In experiment [1] the target is Protein smoothened (Mus musculus) (UniProt P56726). Put plainly: Potency index, ratio of IC50 of C794-1677 to IC50 of compound for antagonist activity at Smo receptor in mouse NIH/3T3 cells harboring GRE-Luc assessed as inhibition of SAG-induced Hh signaling pathway preincubated with cells followed by SAG addition measured after 48 hrs by luciferase reporter gene assay. Type of experiment: cell-based. (In a reporter assay the amount or activity of a reporter protein is the signal.)

The chains behind the UniProt entries cited, without tags or fusion partners.
UniProt P56726, whole entry: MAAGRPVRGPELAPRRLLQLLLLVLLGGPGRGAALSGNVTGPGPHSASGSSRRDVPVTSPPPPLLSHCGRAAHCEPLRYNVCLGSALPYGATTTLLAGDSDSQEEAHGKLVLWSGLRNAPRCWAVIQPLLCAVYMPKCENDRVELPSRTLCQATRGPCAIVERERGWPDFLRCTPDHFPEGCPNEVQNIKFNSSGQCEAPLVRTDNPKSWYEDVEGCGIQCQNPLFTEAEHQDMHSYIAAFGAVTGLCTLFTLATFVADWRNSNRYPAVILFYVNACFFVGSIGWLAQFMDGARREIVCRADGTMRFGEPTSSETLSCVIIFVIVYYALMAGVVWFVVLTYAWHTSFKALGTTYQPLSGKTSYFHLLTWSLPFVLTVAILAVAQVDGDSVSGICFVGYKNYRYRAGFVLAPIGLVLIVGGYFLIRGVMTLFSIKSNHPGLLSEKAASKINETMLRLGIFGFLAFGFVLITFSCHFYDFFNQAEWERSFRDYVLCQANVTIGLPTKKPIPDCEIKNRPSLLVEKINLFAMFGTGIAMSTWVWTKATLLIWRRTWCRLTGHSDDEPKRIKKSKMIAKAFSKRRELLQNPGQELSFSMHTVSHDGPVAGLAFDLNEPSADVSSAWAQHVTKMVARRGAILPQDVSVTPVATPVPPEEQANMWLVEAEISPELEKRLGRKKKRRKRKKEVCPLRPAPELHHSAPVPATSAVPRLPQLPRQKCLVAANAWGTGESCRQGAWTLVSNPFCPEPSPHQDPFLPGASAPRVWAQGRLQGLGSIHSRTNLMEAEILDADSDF

Experiment [2] shares this target. Nature of the experiment: Potency index, ratio of IC50 of vismodegib to IC50 of compound for antagonist activity at Smo receptor in mouse NIH/3T3 cells harboring GRE-Luc assessed as inhibition of SAG-induced Hh signaling pathway preincubated with cells followed by SAG addition measured after 48 hrs by luciferase reporter gene assay. Format: cell-based.

Molecules are shown by their SMILES.

For the molecule `Cc1ccc(NCc2ccnn2-c2nnc(N3CCC(C(=O)NC4CCCCC4C)CC3)s2)nc1` (racemic), the Ratio IC50 in experiment [1] and in experiment [2] was 7 in each case.

Values taken from ChEMBL document CHEMBL4393662, “Structural optimization on a virtual screening hit of smoothened receptor” (Eur J Med Chem, 2019).
